Assay [1] in a line: CCTE_Shafer_MEA_dev_correlation_coefficient_mean: CCTE's Neural Network Formation Assay for Mean Correlation Coefficient, Shafer Lab (AID 2284093).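 As to AC50: well mean pairwise spike train correlation integrated as AUC over recording days 5 to 12; potency fitted for loss of correlation relative to DMSO vehicle wells.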 The method in brief:
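Primary rat cortical neurons on PEI-coated 48-well MEA plates (16 electrodes/well) were exposed from plating day 0 through DIV12, with compound renewed at DIV5 and 9. Pairwise spike correlations were averaged per well; trapezoidal AUC across DIV5, 7, 9, 12.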

Assay [2] in a line: UKN2_HCS_IMR90_neural_migration: University of Konstanz (UKN) Leist Lab Neural Crest Cell Migration Assay in human induced IMR90 Pluripotent Stem Cells (UKN2) (AID 2284204). Particulars: actives raise or lower the signal. In short, it runs like this: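 Migration of human IMR90-derived neural crest cells into a stopper-defined gap is imaged after 24 h chemical treatment. Activity is fitted bidirectionally relative to DMSO.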

Assay [3] is described as follows: IUF_NPC1b_proliferation_BrdU_72hr: Leibniz Research Institute for Environmental Medicine (IUF) 72-hour Neural Progenitor Cell Bromodeoxyuridine (BrdU) Proliferation Assay (NPC1b) (AID 2284207). The method in brief: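 Proliferation of primary human neural progenitor cells: 72 h compound treatment at 37C, 5% CO2, pH 7.2-7.6, in EGF/FGF-containing medium. Readout is BrdU uptake (last 16 h) by chemiluminescent ELISA, normalised to DMSO.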

The nature of assay [4]: IUF_NPC1a_proliferation_area_72hr: Leibniz Research Institute for Environmental Medicine (IUF) 72-hour Neural Progenitor Cell Proliferation Area Assay (NPC1a) (AID 2284208). The method in brief:
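Proliferation read as increase in sphere area by phase-contrast imaging over 72 h continuous compound exposure (no renewal) of hNPC spheres grown with EGF/FGF at 37C, 5% CO2. Growth-factor withdrawal served as positive control; DMSO as baseline.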

Assay [5] can be described thus: IUF_NPC1_viability_72hr: Viability Assessment at 72 hours in the Leibniz Research Institute for Environmental Medicine (IUF) Neural Progenitor Cell Proliferation Assay (NPC1) (AID 2284209). In short, it runs like this: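 Each well receives one 0.3 mm progenitor sphere from fetal brain cortex; test chemical is added at plating and left three days. Viability comes from alamar blue fluorescence, multiplexed with LDH and BrdU readouts in the same well.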

Assay [6] in a line: CCTE_Mundy_HCI_Cortical_Synap_Neur_Matur_NeuriteSpotCountPerNeuriteLength: CCTE's Synaptogenesis and Neurite Maturation Assay in rat cortical cells for Neurite Spot Count per Neurite Length, Mundy Lab (AID 2284210). In short, it runs like this:
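Primary rat cortical neurons, compound exposure DIV 7–12, 288.33 h endpoint. Hoechst, anti-MAP2 and anti-synaptophysin labelling; neurite-associated puncta per neurite length scored by automated imaging relative to DMSO controls.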

Assay [7] in a line: CCTE_Mundy_HCI_Cortical_Synap_Neur_Matur_BPCount: CCTE's Synaptogenesis and Neurite Maturation Assay in rat cortical cells for Branch Point Count, Mundy Lab (AID 2284211). The method in brief:
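Branch point number is quantified by automated imaging of fluorescently labelled neurites and synapses in rat primary cortical neurons exposed from DIV 7 to DIV 12. Activity is analysed relative to DMSO negative control.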

A short description of assay [8]: CCTE_Mundy_HCI_Cortical_NOG_NeuriteCount: CCTE's Neurite Outgrowth Assay in rat cortical cells for Neurite Count, Mundy Lab (AID 2284212).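 Also: cells fixed about two days after chemical exposure began.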 As for the experimental part:
CCTE_Mundy_HCI_Cortical_NOG is a multiplexed, cell-based-readout assay that uses rat primary cortical cells with measurements taken at 50.33 hours after chemical dosing in a microplate: 96-well plate.CCTE_Mundy_HCI_Cortical_NOG_NeuriteCount is one of four components of the CCTE_Mundy_HCI_Cortical_NOG assay. It measures neurite outgrowth related to the number of neurites using High Content Imaging of fluorescently labelled markers.[…] Using a type of morphology reporter, loss -of-signal activity can be used to understand developmental effects.
Exposure starts 2 hours post-plating by adding 10 ul of the working solution to 90 ul of media in the wells for a 1/10 dilution. Forty-eight hours after chemical treatment cells are fixed by direct addition of 100 ul of warm (37C) Dulbecco's phosphate buffered saline (DPBS) fixative solution containing 8% paraformaldehyde, 8% sucrose, and 0.1% of 3 mg/ml Hoechst 33342 into each well. Primary antibodies are prepared by dilution in Immunocytochemical Staining Buffer (ISB), 10X Dulbecco's PBS, 0.1% Saponin, 5% Bovine Serum Albumin, 0.5% NaN3 (Sodium Azide) and betaIII-tubulin (rabbit anti-betaIII-tubulin, 1:800) followed by Alexa Fluor-488 secondary (1:500) to label neuronal cell bodies and neurites. A Cellomics ArrayScan VTi HCS Reader is used for automated image acquisition and analysis of neurite outgrowth.

Assay [9] is described as follows: CCTE_Mundy_HCI_Cortical_NOG_NeuriteLength: CCTE's Neurite Outgrowth Assay in rat cortical cells for Neurite Length, Mundy Lab (AID 2284213).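 As to AC50: neurites imaged about 48 to 50 h after chemical exposure began.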 In short, it runs like this: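 Neurite length was read by high-content imaging of βIII-tubulin-labelled neurites in rat primary cortical cultures. Activity was fitted relative to DMSO.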
Assay [10] in a line: CCTE_Mundy_HCI_Cortical_Synap_Neur_Matur_NeuriteLength: CCTE's Synaptogenesis and Neurite Maturation Assay in rat cortical cells for Neurite Length, Mundy Lab (AID 2284214). The method in brief:
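Neurite length in rat primary cortical cultures is imaged after MAP2, synaptophysin and Hoechst staining. Dosing starts DIV 7, ending DIV 12; DMSO serves as negative control and baseline.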

Where “and” joins values, the source holds several entries; their conditions need not be identical. Equal values may be shown once. The list shows a part of the results, in another mix than the full data. Some structures have more than one record in an assay (separate samples or runs), and their calls can disagree. Calls of active or inactive are those of the source. The calls were made as follows: active = hit-call score of the fitted dose curve at least 0.9, where 1 is the maximum; inactive = score below 0.9.

As a reminder, the AC50 is the concentration at which the activity in the assay is half-maximal.

For the compound `CC(C)OP(=O)(OC(C)C)SCCNS(=O)(=O)c1ccccc1`, the outcome in assay [1], in [2], in assay [3], in assay [4], in [5] and in [6] was inactive. Moreover, the call in [7], in assay [8], in assay [9] and in assay [10] was inactive.

As to `CC(C)OP(=S)(OC(C)C)SCCNS(=O)(=O)c1ccccc1`, the half-maximal activity concentration (AC50) in assay [1] is active: 78.9 µM and active: 12.5 µM; in assay [2], active: 135 µM; in [6] it was active: 52 µM; in [8] it was active: 92.6 µM and active: 74.4 µM; in assay [9], active: 86.6 µM and active: 82.2 µM; in assay [10], active: 50 µM and active: 29.9 µM. The result in assay [4], in [5] and in assay [6] was inactive.

Consider `CN(C(=O)Cc1cccc2occc12)[C@H]1CC[C@@]2(CCCO2)C[C@@H]1N1CCCC1`, for which, in assay [1], the result was inactive.

The values are drawn from PubChem BioAssay (EPA / NIEHS).
